# Measurements: US11066414B2, “Cot modulators and methods of use thereof” (Gilead Sciences, Inc., priority 2015, dated 2021)
# Protein sequences, listed by entry. Tags and fused reporters are not part of them. Residues count along the entry.
# UniProt P41279, 30-397: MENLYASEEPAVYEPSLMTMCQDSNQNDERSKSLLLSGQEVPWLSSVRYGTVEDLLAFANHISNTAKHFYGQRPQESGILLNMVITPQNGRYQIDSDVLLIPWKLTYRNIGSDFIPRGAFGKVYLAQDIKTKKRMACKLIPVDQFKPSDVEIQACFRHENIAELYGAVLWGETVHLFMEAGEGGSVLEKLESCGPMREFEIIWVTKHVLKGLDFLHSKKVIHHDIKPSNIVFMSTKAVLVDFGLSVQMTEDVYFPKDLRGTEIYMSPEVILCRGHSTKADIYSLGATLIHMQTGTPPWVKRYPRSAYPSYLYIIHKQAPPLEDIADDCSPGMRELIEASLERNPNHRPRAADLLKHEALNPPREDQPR
# Target: Human Cot (Homo sapiens (Human), UniProt P41279)
# Assay: High Throughput Cot Biochemical Assay
# Conditions: IC50 HTRF, Cot HTRF (TR-FRET) biochemical assay
row,SMILES,IC50
1,"CC(C)(C)N1CCC(n2cc([C@@H](Nc3cc(Cl)c4ncc(C#N)c(Nc5ccc(F)c(Cl)c5)c4c3)c3cccc4c3CCN4)nn2)CC1 [Example 60, (S)-6-(((1-(1-(tert-butyl)piperidin-4-yl)-1H-1,2,3-triazol-4-yl)(indolin-4-yl)methyl)amino)-8-chloro-4-((3-chloro-4-fluorophenyl)amino)quinoline-3-carbonitrile]",12 nM
2,"[2H]C(Nc1cc(Cl)c2ncc(C#N)c(N[C@H](CC)c3ccccc3)c2c1)(c1cn(C2CC2)nn1)c1cc(F)cnc1C (stereo partly drawn) [Example 113, 8-chloro-6-(((1-cyclopropyl-1H-1,2,3-triazol-4-yl)(5-fluoro-2-methylpyridin-3-yl)methyl-d)amino)-4-(((R)-1-phenylpropyl)amino)quinoline-3-carbonitrile]",13 nM
3,"N#Cc1cnc2c(Cl)cc(N[C@H](c3cn(C4CC4)nn3)c3cnccc3Cl)cc2c1Nc1cnc(F)c(F)c1 [Example 133, (S)-8-chloro-6-(((4-chloropyridin-3-yl)(1-cyclopropyl-1H-1,2,3-triazol-4-yl)methyl)amino)-4-((5,6-difluoropyridin-3-yl)amino)quinoline-3-carbonitrile]",25 nM
4,"[2H][C@](Nc1cc(Cl)c2ncc(C#N)c(NCC(C)(C)C)c2c1)(c1ccc(F)nc1)c1c[nH]nn1 [Example 135, (S)-8-chloro-6-(((6-fluoropyridin-3-yl)(1H-1,2,3-triazol-4-yl)methyl-d)amino)-4-(neopentylamino)quinoline-3-carbonitrile]",23 nM
5,"Cc1scnc1[C@H](Nc1cc(Cl)c2ncc(C#N)c(Nc3ccc(F)c(Cl)c3)c2c1)c1cn(C2CCN(C(C)(C)C)CC2)nn1 [Example 137, (S)-6-(((1-(1-(tert-butyl)piperidin-4-yl)-1H-1,2,3-triazol-4-yl)(5-methylthiazol-4-yl)methyl)amino)-8-chloro-4-((3-chloro-4-fluorophenyl)amino)quinoline-3-carbonitrile]",15 nM
6,"N#Cc1cnc2c(Cl)cc(N[C@H](c3c[nH]nn3)c3cccnc3Cl)cc2c1Nc1cnc(F)c(F)c1 [Example 161, (S)-8-chloro-6-(((2-chloropyridin-3-yl)(1H-1,2,3-triazol-4-yl)methyl)amino)-4-((5,6-difluoropyridin-3-yl)amino)quinoline-3-carbonitrile]",12 nM
7,"Cc1nc(Cl)ccc1[C@H](Nc1cc(Cl)c2ncc(C#N)c(Nc3cnc(F)c(F)c3)c2c1)c1c[nH]nn1 [Example 169, (S)-8-chloro-6-(((6-chloro-2-methylpyridin-3-yl)(1H-1,2,3-triazol-4-yl)methyl)amino)-4-((5,6-difluoropyridin-3-yl)amino)quinoline-3-carbonitrile]",14 nM
8,"N#Cc1cnc2c(Cl)cc(N[C@@H](c3cccnc3)c3cn(C4COC4)nn3)cc2c1N[C@@H](CCO)c1ccccc1 [Example 182, 8-chloro-4-(((S)-3-hydroxy-1-phenylpropyl)amino)-6-(((S)-(1-(oxetan-3-yl)-1H-1,2,3-triazol-4-yl)(pyridin-3-yl)methyl)amino)quinoline-3-carbonitrile]",13 nM
9,"N#Cc1cnc2c(Cl)cc(N[C@@H](c3cccnc3)c3cn(CC(F)(F)F)nn3)cc2c1Nc1cnc(F)c(F)c1 [Example 209, (S)-8-chloro-4-((5,6-difluoropyridin-3-yl)amino)-6-((pyridin-3-yl(1-(2,2,2-trifluoroethyl)-1H-1,2,3-triazol-4-yl)methyl)amino)quinoline-3-carbonitrile]",23 nM
10,"Cc1ncsc1[C@H](Nc1cc(Cl)c2ncc(C#N)c(Nc3ccc(Cl)c(Cl)c3F)c2c1)c1cn(C2COC2)nn1 [Example 217, (R)-8-chloro-4-((3,4-dichloro-2-fluorophenyl)amino)-6-(((4-methylthiazol-5-yl)(1-(oxetan-3-yl)-1H-1,2,3-triazol-4-yl)methyl)amino)quinoline-3-carbonitrile]",12 nM
11,"Cc1ncccc1[C@H](Nc1cc(Cl)c2ncc(C#N)c(Nc3cccc(Cl)c3)c2c1)c1c[nH]nn1 [Example 224, (S)-8-chloro-4-((3-chlorophenyl)amino)-6-(((2-methylpyridin-3-yl)(1H-1,2,3-triazol-4-yl)methyl)amino)-quinoline-3-carbonitrile]",12 nM
12,"Cc1ncccc1[C@H](Nc1cc(Cl)c2ncc(C#N)c(N[C@H](C)c3ccccc3)c2c1)c1c[nH]nn1 [Example 229, 8-chloro-6-(((S)-(2-methylpyridin-3-yl)(1H-1,2,3-triazol-4-yl)methyl)amino)-4-(((R)-1-phenylethyl)amino)quinoline-3-carbonitrile]",12 nM
13,"Cc1ncccc1[C@H](Nc1cc(Cl)c2ncc(C#N)c(Nc3ccc(Cl)c(Cl)c3F)c2c1)c1cn(C(C)C)nn1 [Example 232, (S)-8-chloro-4-((3,4-dichloro-2-fluorophenyl)amino)-6-(((1-isopropyl-1H-1,2,3-triazol-4-yl)(2-methylpyridin-3-yl)methyl)amino)quinoline-3-carbonitrile]",15 nM
14,"Cc1nc(C)c([C@H](Nc2cc(Cl)c3ncc(C#N)c(Nc4ccc(F)c(Cl)c4)c3c2)c2cn(C3CCN(C(C)(C)C)CC3)nn2)s1 [Example 261, (R)-6-(((1-(1-(tert-butyl)piperidin-4-yl)-1H-1,2,3-triazol-4-yl)(2,4-dimethyl-thiazol-5-yl)methyl)amino)-8-chloro-4-((3-chloro-4-fluorophenyl)amino)-quinoline-3-carbonitrile]",14 nM
15,"Cc1ocnc1[C@H](Nc1cc(Cl)c2ncc(C#N)c(Nc3ccc(F)c(Cl)c3)c2c1)c1cn(C2CCN(C(C)(C)C)CC2)nn1 [Example 263, (S)-6-(((1-(1-(tert-butyl)piperidin-4-yl)-1H-1,2,3-triazol-4-yl)(5-methyloxazol-4-yl)methyl)amino)-8-chloro-4-((3-chloro-4-fluorophenyl)amino)quinoline-3-carbonitrile]",13 nM
16,"Cc1ncoc1[C@H](Nc1cc(Cl)c2ncc(C#N)c(Nc3ccc(F)c(Cl)c3)c2c1)c1cn(C2CCN(C(C)(C)C)CC2)nn1 [Example 265, (R)-6-(((1-(1-(tert-butyl)piperidin-4-yl)-1H-1,2,3-triazol-4-yl)(4-methyloxazol-5-yl)methyl)amino)-8-chloro-4-((3-chloro-4-fluorophenyl)amino)quinoline-3-carbonitrile]",14 nM
17,"Cn1cnc([C@H](Nc2cc(Cl)c3ncc(C#N)c(Nc4ccc(F)c(Cl)c4)c3c2)c2c[nH]nn2)c1 [Example 266, (S)-8-chloro-4-((3-chloro-4-fluorophenyl)amino)-6-(((1-methyl-1H-imidazol-4-yl)(1H-1,2,3-triazol-4-yl)methyl)amino)-quinoline-3-carbonitrile]",37 nM
18,"Cc1ncccc1[C@H](Nc1cc(Cl)c2ncc(C#N)c(Nc3ccc(F)c(Cl)c3)c2c1)c1cn(COC(=O)C(C)(C)C)nn1 [Example 274, (S)-(4-(((8-chloro-4-((3-chloro-4-fluorophenyl)amino)-3-cyanoquinolin-6-yl)amino)(2-methylpyridin-3-yl)methyl)-1H-1,2,3-triazol-1-yl)methyl pivalate]",12 nM
19,"Cc1ccc([C@H](Nc2cc(Cl)c3ncc(C#N)c(Nc4ccc(F)c(Cl)c4)c3c2)c2cn(C3CCN(C(C)(C)C)CC3)nn2)cn1 [Example 281, (S)-6-(((1-(1-(tert-butyl)piperidin-4-yl)-1H-1,2,3-triazol-4-yl)(6-methylpyridin-3-yl)methyl)amino)-8-chloro-4-((3-chloro-4-fluorophenyl)-amino)quinoline-3-carbonitrile]",13 nM
20,"CC(C)(C)N1CCC(n2cc([C@@H](Nc3cc(Cl)c4ncc(C#N)c(Nc5cncc(Cl)c5)c4c3)c3cccnc3)nn2)CC1 [Example 284, (S)-6-(((1-(1-(tert-butyl)piperidin-4-yl)-1H-1,2,3-triazol-4-yl)(pyridin-3-yl)methyl)amino)-8-chloro-4-((5-chloropyridin-3-yl)amino)quinoline-3-carbonitrile]",14 nM
21,"COc1ccc([C@H](Nc2cc(Cl)c3ncc(C#N)c(Nc4ccc(F)c(Cl)c4)c3c2)c2cn(C3CCN(C(C)(C)C)CC3)nn2)cn1 [Example 290, (S)-6-(((1-(1-(tert-butyl)piperidin-4-yl)-1H-1,2,3-triazol-4-yl)(6-methoxy-pyridin-3-yl)methyl)amino)-8-chloro-4-((3-chloro-4-fluorophenyl)amino)-quinoline-3-carbonitrile]",12 nM
22,"CC(C)n1cc([C@@H](Nc2cc(Cl)c3ncc(C#N)c(Nc4ccc(F)c(Cl)c4)c3c2)c2csc(N3CCOCC3)n2)nn1 [Example 301, (S)-8-chloro-4-((3-chloro-4-fluoro-phenyl)amino)-6-(((1-isopropyl-1H-1,2,3-triazol-4-yl)(2-morpholinothiazol-4-yl)methyl)amino)quinoline-3-carbonitrile]",14 nM
23,"CC(C)n1cc([C@@H](Nc2cc(Cl)c3ncc(C#N)c(Nc4ccc(F)c(Cl)c4)c3c2)c2cncs2)nn1 [Example 303, (R)-8-chloro-4-((3-chloro-4-fluorophenyl)amino)-6-(((1-isopropyl-1H-1,2,3-triazol-4-yl)(thiazol-5-yl)methyl)amino)quinoline-3-carbonitrile]",14 nM

# Same assay, conditions: read-out: IC50 HTRF; Cot HTRF (TR-FRET) biochemical assay
row,SMILES,IC50
1,CC(C)(C)N1CCC(n2cc([C@@H](Nc3cc(Cl)c4ncc(C#N)c(Nc5cnc(F)c(F)c5)c4c3)c3cccnc3)nn2)CC1 [Example 208],12 nM
2,"Cc1cncc([C@H](Nc2cc(Cl)c3ncc(C#N)c(Nc4ccc(F)c(Cl)c4)c3c2)c2c[nH]nn2)c1 [Example 249, (S)-8-chloro-4--((3-chloro-4-fluorophenyl)amino)-6-(((5-methylpyridin-3-yl)(1H-1,2,3-triazol-4-yl)methyl)amino)quinoline-3-carbonitrile]",12 nM
3,Cc1cc(Cl)ncc1[C@H](Nc1cc(Cl)c2ncc(C#N)c(Nc3ccc(F)c(Cl)c3)c2c1)c1cn(C2CCN(C(C)(C)C)CC2)nn1 [Example 289],37 nM
4,"CC(C)Oc1ncccc1[C@H](Nc1cc(Cl)c2ncc(C#N)c(Nc3ccc(F)c(Cl)c3)c2c1)c1cn(C2CCN(C(C)(C)C)CC2)nn1 [Example 291, (S)-6-(((1-(1-(tert-butyl)piperidin-4-yl)-1H-1,2,3-triazol-4-yl)(2-isopro-poxypyridin-3-yl)methyl)amino)-8-chloro-4-((3-chloro-4-fluorophenyl)-amino)quinoline-3-carbonitrile]",35 nM
